The values that follow come from paper PMC5748754, “Elucidating the Skin Delivery of Aglycone and Glycoside Flavonoids: How the Structures Affect Cutaneous Absorption” (Nutrients, 2017).

This series can be described thus: Partition coefficient (log P), n-octanol/water. It is filed as physicochemical. Conditions: 37 °C. On the procedure: Flavonoids in methanol (0.5 mg/mL) were pipetted into a tube at a volume of 1 mL. Methanol was then evaporated under vacuum. In the amount of 1 mL of each, n-Octanol and water were incorporated into the tube. After being shaken for 24 h at 37 °C, the tube was centrifugated at 10,000× g for 10 min. The flavonoid content in both phases was analyzed by HPLC. The log P was calculated as log (flavonoid content in n-octanol/flavonoid content in water).

Compound `C[C@@H]1O[C@@H](OC[C@H]2O[C@@H](Oc3c(-c4ccc(O)c(O)c4)oc4cc(O)cc(O)c4c3=O)[C@H](O)[C@@H](O)[C@@H]2O)[C@H](O)[C@H](O)[C@H]1O` [Rutin] had a logP at 24 h of 0.76 ± 0.22.

Usually logP stands for a log measure of how a compound divides between an organic and an aqueous phase. A low value points to lower lipophilicity.
